Activity calls are given as the source filed them. The rule behind the calls is not given here.
Experiments:
[1] = target: T1, Anthranilate synthase component 1 (Salmonella typhimurium (strain LT2 / SGSC1412 / ATCC 700720)) (UniProt P00898); experiment: Competitive inhibition of Salmonella Typhimurium anthranilate synthase trpE expressed in Escherichia coli BL21(DE3) by double reciprocal plot in presence of cofactor Mg2+; conditions: Salmonella enterica subsp. enterica serovar Typhimurium
T1 sequence (whole entry): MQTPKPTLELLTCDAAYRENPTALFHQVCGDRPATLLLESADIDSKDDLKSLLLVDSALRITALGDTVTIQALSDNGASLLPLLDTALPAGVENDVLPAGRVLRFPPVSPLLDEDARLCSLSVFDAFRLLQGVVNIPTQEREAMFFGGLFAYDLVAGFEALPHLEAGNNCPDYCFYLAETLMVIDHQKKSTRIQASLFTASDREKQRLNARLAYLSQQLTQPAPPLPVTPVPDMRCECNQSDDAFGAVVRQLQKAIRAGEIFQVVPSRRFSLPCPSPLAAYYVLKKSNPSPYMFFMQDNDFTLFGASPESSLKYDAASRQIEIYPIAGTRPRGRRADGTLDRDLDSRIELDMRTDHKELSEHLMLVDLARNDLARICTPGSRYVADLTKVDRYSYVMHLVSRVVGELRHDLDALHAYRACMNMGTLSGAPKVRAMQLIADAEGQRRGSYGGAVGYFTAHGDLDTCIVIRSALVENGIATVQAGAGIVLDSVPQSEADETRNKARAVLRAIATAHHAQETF

[2] = target: T1, Anthranilate synthase component 1 (Salmonella typhimurium (strain LT2 / SGSC1412 / ATCC 700720)); experiment: Noncompetitive inhibition of Salmonella Typhimurium anthranilate synthase trpE expressed in Escherichia coli BL21(DE3) using chorismate as substrate by double reciprocal plot; conditions: Salmonella enterica subsp. enterica serovar Typhimurium
In short: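 S. typhimurium anthranilate synthase partial complex (TrpE2TrpG2), 2.2 nM, in a fluorescence assay read at 390 nm emission, 313 nm excitation, 25 °C. Buffer: 100 mM phosphate pH 7.0, 20 mM L-glutamine, 5 mM MgCl2 (saturating). Reactions were started with enzyme. Inhibitor ranged 10 μM–8 mM; chorismate ranged 0.5–5 KM. Ki versus chorismate came from initial rates.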

- Activity [1]: Active
- Activity [2]: Active
Compound: Cc1ccc(C(=O)N[C@@H](CCCCN)C(=O)N[C@@H](Cc2cccc(Cl)c2)C(N)=O)c([N+](=O)[O-])c1O
